For the test, the target named is R132H mutant IDH1 enzyme (Homo sapiens (Human), UniProt O75874, R132H). In words: R132H IDH1 Enzymatic Assay. As to conditions: R132H mutant IDH1 enzyme 1.5 nM final; luminescence readout; read-out: IC50. The format is biochemical.

Protein sequences, listed by entry. Tags and fused reporters are not part of them.
UniProt O75874, whole entry R132H: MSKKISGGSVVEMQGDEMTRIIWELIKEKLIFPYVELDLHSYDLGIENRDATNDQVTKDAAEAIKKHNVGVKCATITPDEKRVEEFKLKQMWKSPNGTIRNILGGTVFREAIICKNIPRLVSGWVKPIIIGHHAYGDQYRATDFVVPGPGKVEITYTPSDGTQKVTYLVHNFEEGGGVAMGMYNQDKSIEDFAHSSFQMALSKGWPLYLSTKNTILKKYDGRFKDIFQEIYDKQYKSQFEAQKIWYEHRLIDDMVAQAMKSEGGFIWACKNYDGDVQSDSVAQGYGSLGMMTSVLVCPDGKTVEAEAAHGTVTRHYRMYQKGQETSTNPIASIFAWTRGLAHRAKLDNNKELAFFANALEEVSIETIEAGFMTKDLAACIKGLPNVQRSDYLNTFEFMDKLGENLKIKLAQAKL

The structures appear in SMILES notation.

From US10442819B2, “Tricyclic compounds as inhibitors of mutant IDH enzymes” (Merck Sharp & Dohme Corp., priority 2014, dated 2019) come the findings set out here.

For `CC(C)O[C@H]1CC[C@H](C(=O)N2Cc3cccnc3Nc3ccc(C4CC=CCO4)cc32)OC1` (stereo partly drawn) [Example 146, (8-(3,6-dihydro-2H-pyran-2-yl)-5,11-dihydro-6H-benzo[b]pyrido[2,3-e][1,4]diazepin-6-yl)((2R,5S)-5-isopropoxytetrahydro-2H-pyran-2-yl)methanone], the half-maximal inhibitory concentration (IC50) (as a rule, the concentration that inhibits the measured activity by half) was 26 nM.
The result for `CC(C)O[C@H]1CC[C@H](C(=O)N2Cc3cccnc3Nc3ccc(C4COC5CC5O4)cc32)OC1` (single isomer, unassigned) [Example 30] reads 30 nM.
For the molecule `CC(C)(C)OC1CCN(C(=O)N2Cc3cccnc3Nc3ccc(N4CCOCC4)cc32)CC1` [Example 555, 6-[(4-tert-butoxypiperidin-1-yl)carbonyl]-8-morpholin-4-yl-6,11-dihydro-5H-pyrido[2,3-b][1,5]benzodiazepine], the concentration for half-maximal inhibition (IC50) was 178 nM.
The result for `O=C([C@H]1CC[C@H](NC2(C(F)(F)F)CC2)CC1)N1Cc2cccnc2Nc2ccc(C3COCCO3)cc21` (stereo partly drawn) [Example 466, trans-4-({8-[-1,4-dioxan-2-yl]-5,11-dihydro-6H-pyrido[2,3-b][1,5]benzodiazepin-6-yl}carbonyl)-N-[1-(trifluoromethyl)cyclopropyl]-cyclohexanamine] reads 43 nM.
The result for `COCCN(CCOC)c1ccc2c(c1)N(C(=O)[C@H]1CC[C@H](OC)CC1)Cc1cccnc1N2` [Example 240, 6-[(trans-4-methoxycyclohexyl)carbonyl]-N,N-bis(2-methoxyethyl)-6,11-dihydro-5H-pyrido[2,3-b][1,5]benzodiazepin-8-amine] reads 181 nM; that for `CO[C@H]1CC[C@@H](C(=O)N2Cc3cccnc3Nc3ccc(N4CCOCC4)cc32)C[C@H]1C(F)(F)F` (single isomer, unassigned) [Example 100], 75 nM; that for `C=CC(=O)N1CC2CCC1CN2c1ccc2c(c1)N(C(=O)C1CC(C)(C)C1)Cc1cccnc1N2` (stereo not shown) [Example 497, 8-(5-acryloyl-2,5-diazabicyclo[2.2.2]oct-2-yl)-6-[(3,3-dimethylcyclobutyl)carbonyl]-6,11-dihydro-5H-pyrido[2,3-b][1,5]benzodiazepine], 76 nM.
The same measure for `O=C(C1CCN(CC(F)(F)F)CC1)N1Cc2cccnc2Nc2ccc(N3C[C@H]4CC[C@@H](C3)O4)cc21` [Example 304, 8-[(1R,5S)-8-oxa-3-azabicyclo[3.2.1]oct-3-yl]-6-{[1-(2,2,2-trifluoroethyl)piperidin-4-yl]carbonyl}-6,11-dihydro-5H-pyrido[2,3-b][1,5]benzodiazepine]: 13 nM; for `O=C([C@H]1CCCN(CC(F)(F)F)C1)N1Cc2cccnc2Nc2ccc(N3CCOCC3)cc21` [Example 51, 8-morpholin-4-yl-6-{[(3S)-1-(2,2,2-trifluoroethyl)piperidin-3-yl]carbonyl}-6,11-dihydro-5H-pyrido[2,3-b][1,5]benzodiazepine]: 662 nM; for `CO[C@H]1CC[C@H](C(=O)N2Cc3cccnc3Nc3ccc(N4C[C@H](C)OC[C@H]4C)cc32)CC1` [Example 222, 8-[(2S,5R)-2,5-dimethylmorpholin-4-yl]-6-[(trans-4-methoxycyclohexyl)carbonyl]-6,11-dihydro-5H-pyrido[2,3-b][1,5]benzodiazepine]: 491 nM.
Regarding `CC(C)O[C@H]1CC[C@H](C(=O)N2Cc3cccnc3Nc3ccc(C4COC4)cc32)OC1` [Example 26, ((2R,5S)-5-isopropoxytetrahydro-2H-pyran-2-yl)(8-(oxetan-3-yl)-5,11-dihydro-6H-benzo[b]pyrido[2,3-e][1,4]diazepin-6-yl)methanone], the IC50 amounted to 15 nM.
The same measure for `O=C([C@H]1CC[C@H](O[C@H]2CC2(F)F)CC1)N1Cc2cccnc2Nc2ccc(N3CCOCC3)cc21` [Example 102, 6-[(trans-4-{[(1S)-2,2-difluorocyclopropyl]oxy}-cyclohexyl)carbonyl]-8-morpholin-4-yl-6,11-dihydro-5H-pyrido[2,3-b][1,5]benzodiazepine]: 120 nM; for `CO[C@H]1CC[C@H](C(=O)N2Cc3cccnc3Nc3ccc(N4CC(C)(C)OC(C)(C)C4)cc32)CC1` [Example 287, 6-[(trans-4-methoxycyclohexyl)carbonyl]-8-(2,2,6,6-tetramethylmorpholin-4-yl)-6,11-dihydro-5H-pyrido[2,3-b][1,5]benzodiazepine]: 404 nM; for `CO[C@H]1CC[C@H](C(=O)N2Cc3cccnc3Nc3ccc(N4CCOC(C)C4)cc32)CC1` (stereo partly drawn) [Example 255, 6-[(trans-4-methoxycyclohexyl)carbonyl]-8-(2-methylmorpholin-4-yl)-6,11-dihydro-5H-pyrido[2,3-b][1,5]benzodiazepine]: 567 nM.
The same measure for `COCC(OC)c1ccc2c(c1)N(C(=O)[C@H]1CC[C@H](OC(C)C)CO1)Cc1cccnc1N2` (single isomer, unassigned) [Example 20]: 72 nM.
As for `CC(C)O[C@H]1CC[C@H](C(=O)N2Cc3cccnc3Nc3ccc(C4CCN(C(=O)OC(C)(C)C)C4)cc32)OC1` (stereo partly drawn) [Example 49, tert-butyl 3-(6-((2R,5S)-5-isopropoxytetrahydro-2H-pyran-2-carbonyl)-6,11-dihydro-5H-benzo[b]pyrido[2,3-e][1,4]diazepin-8-yl)pyrrolidine-1-carboxylate], the 50% inhibitory concentration (IC50) turned out to be 5 nM.
The result for `CO[C@H]1CC[C@H](C(=O)N2Cc3cccnc3Nc3ccc(S(=O)(=O)C4CC4)cc32)CC1` [Example 433, 8-(cyclopropylsulfonyl)-6-[(trans-4-methoxycyclohexyl)carbonyl]-6,11-dihydro-5H-pyrido[2,3-b][1,5]benzodiazepine] reads 189 nM; that for `CC(C)O[C@H]1CC[C@H](C(=O)N2Cc3cccnc3Nc3ccc(C4(C#N)CCOCC4)cc32)CC1` [Example 138, 4-(6-{[trans-4-(1-methylethoxy)cyclohexyl]-carbonyl}-6,11-dihydro-5H-pyrido[2,3-b][1,5]benzodiazepin-8-yl)tetrahydro-2H-pyran-4-carbonitrile], 4 nM.
The same measure for `CC(C)O[C@H]1CC[C@H](C(=O)N2Cc3cccnc3Nc3ccc(C4(C#N)CC4)cc32)OC1` [Example 136, 1-(6-((2R,5S)-5-isopropoxytetrahydro-2H-pyran-2-carbonyl)-6,11-dihydro-5H-benzo[b]pyrido[2,3-e][1,4]diazepin-8-yl)cyclopropane-1-carbonitrile]: 19 nM; for `CO[C@H]1CC[C@@H](C(=O)N2Cc3cccnc3Nc3ccc(N4CCOCC4)cc32)C[C@H]1C` [Example 93, 6-{[(1R,3R,4S)-4-methoxy-3-methylcyclohexyl]carbon-yl}-8-morpholin-4-yl-6,11-dihydro-5H-pyrido[2,3-b][1,5]benzodiazepine]: 218 nM; for `COC1CCC(C(=O)N2Cc3cccnc3Nc3ccc(N4CCC(C)(OC)CC4)cc32)CC1` (stereo not shown) [Example 201, 6-[(4-methoxycyclohexyl)carbonyl]-8-(4-methoxy-4-methylpiperidin-1-yl)-6,11-dihydro-5H-pyrido[2,3-b][1,5]benzodiazepine]: 283 nM.
As for `CO[C@@H]1CCN(c2ccc3c(c2)N(C(=O)[C@H]2CC[C@H](OC(C)C)CC2)Cc2cccnc2N3)C1` [Example 207, 8-[(3R)-3-methoxypyrrolidin-1-yl]-6-{[trans-4-(1-methylethoxy)cyclohexyl]car-bonyl}-6,11-dihydro-5H-pyrido[2,3-b][1,5]benzodiazepine], the IC50 turned out to be 70 nM.
